Measured values reported in PubChem BioAssay AID1159607 (Small Molecule Screening Facility, UW Madison, 2016).
The entries are a selection whose mix differs from that of the whole data set. The source made the active and inactive calls. No stated cut-off is given here; in the data, active means FP signal below about 40; inactive means the rest.

What follows are compounds tested on RMI core complex (RMI1/RMI2) binding to FANCM MM2 peptide, human (assay: disruptors of RMI1/RMI2 association with MM2 peptide – biochemical, fluorescence polarization, human, primary screen (AID 1159607)). Settings: RMI core complex with F-MM2 peptide, at 33 µM, stronger effect = lower value.

Row | SMILES | FP signal (polarization)
1 | OCCSCCO | inactive: 49
2 | C/C1=C2N=C(/C=C3N=C(/C(C)=C4\[N-][C@@](C)([C@@H]5N=C1[C@](C)(CCC(=O)NC[C@@H](C)OP(=O)([O-])O[C@H]1[C@@H](O)[C@@H](n6cnc7cc(C)c(C)cc76)O[C@@H]1CO)[C@H]5CC(N)=O)[C@@](C)(CC(N)=O)[C@@H]4CCC(N)=O)[C@@](C)(CC(N)=O)[C@@H]\3CCC(N)=O)C(C)(C)[C@@H]/2CCC(N)=O.[C-]#N.[Co+3] | inactive: 61
3 | O=[N+]([O-])C1([N+](=O)[O-])COCOC1 | inactive: 60
